Results reported in PubChem BioAssay AID1222 (Sanford-Burnham Center for Chemical Genomics, 2008).
The list shows a part of the results. Potency and affinity values are given separately. Activity calls are given as the source filed them.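 How the source made its calls: active means EC50 below 50 µM in the dose-response confirmation; inactive means the rest.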

Assay: rescue of cells from ER stress-induced death, primary screen, 384-well, CSM14.1, thapsigargin, ATP luminescence (AID 1222);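 further: death triggered by thapsigargin at about 15 µM added after 2 h compound pretreatment; cell ATP read after overnight thapsigargin exposure of roughly 18 to 22 hours; reference of the scale not given here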
Conditions: CSM14.1 thapsigargin-induced death rescue, at 20 µM, hits give high values

| Compound | cellular ATP content (survival) |
| --- | --- |
| O=P(Nc1ccccn1)(c1cccc2ccccc12)c1cccc2ccccc12 | inactive: -0.8% |
| Cc1cc(SC(NC=O)C(Cl)(Cl)Cl)ncn1 (stereo not given) | inactive: -1.7% |
| Cc1cc(SC(NC(=O)c2ccccc2)C(Cl)(Cl)Cl)nc(C(C)C)n1 (stereo not given) | inactive: -0.6% |
| CCC(C)N(CC(C)C)C(=S)SC(NC(C)=O)C(Cl)(Cl)Cl (stereo not given) | inactive: -3.2% |
| O=C(COc1ccccc1)OC1CN2CCC1CC2 (stereo not given) | inactive: -3.2% |
| COc1ccc(N/C(=N/P(=O)(N2CCOCC2)N2CCOCC2)N2CCOCC2)cc1 | inactive: -0.9% |
| COc1ccc2nc(NP(=O)(c3ccccc3)c3ccccc3)sc2c1 | inactive: -1.9% |
| Cc1cc(=O)[nH]c(N[N+](=O)[O-])n1 | inactive: 0.6% |
| O=C(OC1CN2CCC1CC2)C12CC3CC(CC(C3)C1)C2 (stereo not given) | inactive: -1.1% |
| Cc1c2c(nc3ccccc13)SC(C(Cl)Cl)C2 (stereo not given) | inactive: 1.4% |
| O=[N+]([O-])c1cc([N+](=O)[O-])c(-c2ccn[nH]2)s1 | inactive: -3% |
| CCN(CC)C(=S)SC(NC=O)C(Cl)(Cl)Cl (stereo not given) | inactive: 0.5% |
| CC(C)NC(=O)NP(=O)(Oc1ccccc1)Oc1ccccc1 | inactive: -0.3% |
| ClCCSc1nnc(-c2cccnc2)o1 | inactive: -0.6% |
| Cc1ccc2nc3c(c(C)c2c1)CC(C(Cl)Cl)S3 (stereo not given) | inactive: 0.1% |
| O=[N+]([O-])c1ccc2c(c1)nnn2O | inactive: -1.3% |
| CCOP1(=S)c2c(C)nn(CCC#N)c2N=C(c2ccc(F)cc2)N1C (stereo not given) | inactive: 0.4% |
| O=P(Nc1nccs1)(c1ccccc1)c1nc2ccccc2s1 (stereo not given) | inactive: 2.7% |
| O=P(Nc1nccs1)(Oc1ccccc1)Oc1ccccc1 | inactive: -2.7% |
| CCOP1(=S)c2c(C)nn(CCC#N)c2N=C(c2ccccc2F)N1C (stereo not given) | inactive: 1.2% |
| CCOP(=O)(Nc1cccc2ccccc12)OCC | inactive: -1.3% |
| COc1cc(C2NCCC3(OCCO3)C2(C)C)cc(OC)c1OC (stereo not given) | inactive: -1.3% |
| Cc1ccc(NCCc2c([N+](=O)[O-])cc([N+](=O)[O-])cc2[N+](=O)[O-])cc1 | inactive: -0.1% |
| Cc1cccc(OCC(=O)OC2CN3CCC2CC3)c1 (stereo not given) | inactive: 2.6% |
| CN(C(=O)Cc1ccc(Cl)c(Cl)c1)[C@@H]1CCCC[C@H]1N1CCCC1 | inactive: -1.7% |

| Compound | cellular ATP content (survival) |
| --- | --- |
| Clc1n[nH]nc1-c1nn[nH][15n]1 | inactive: -0.4% |
| O=P1(Nc2ccccn2)COc2ccccc2OC1 | inactive: -0.6% |
| O=P1(Nc2ccc(Br)cn2)COc2ccccc2OC1 | inactive: 1.3% |
| Cc1ccc(OCC(=O)OC2CN3CCC2CC3)cc1 (stereo not given) | inactive: -2.9% |
| O=P1(Nc2ncccn2)COc2ccccc2OC1 | inactive: -5.3% |
| CC1CCC(C(C)C)C(OP(=O)(Nc2ccccn2)c2ccccc2)C1 (stereo not given) | inactive: 0.5% |
| Cc1nn(-c2ccccc2)c2c1P(=O)(N1CCOCC1)N(C)C(c1ccccc1)=N2 (stereo not given) | inactive: -1.3% |
| C(Cc1nn[nH]n1)Cc1nn[nH]n1 | inactive: -2.8% |
| O=C(OC1CN2CCC1CC2)c1cccc(Cl)c1 (stereo not given) | inactive: 1.4% |
| CC(=O)NC(SC(=S)N(C)C)C(Cl)(Cl)Cl (stereo not given) | inactive: -0.8% |
| O=P(Nc1ccccn1)(c1ccc(Br)cc1)c1ccc(Br)cc1 | inactive: -1.1% |
| c1nnnn1CCn1cnnn1 | inactive: -3% |
| CC(C)C(=O)NC(Sc1ccccc1)C(Cl)(Cl)Cl (stereo not given) | inactive: -1.9% |
| O=P(Nc1nccs1)(c1ccccc1)c1ccccc1 | inactive: -2.1% |
| CC(=O)Nc1ccc(Oc2c([N+](=O)[O-])cc([N+](=O)[O-])cc2[N+](=O)[O-])cc1 | inactive: -0.1% |
| CC(C)(C)C(=O)NC(Sc1ccccc1)C(Cl)(Cl)Cl (stereo not given) | inactive: -6% |
| CCOc1ccc(C2=NCC(CBr)S2)cc1 (stereo not given) | inactive: 2.3% |
| O=P1(Nc2nc3ccc(Cl)cc3s2)COc2ccccc2O1 (stereo not given) | inactive: -0.8% |
| O=c1c2cc([N+](=O)[O-])ccc2[nH]c2c([N+](=O)[O-])cc([N+](=O)[O-])cc12 | inactive: 4.6% |
| CC(=O)NC(SC(=S)N(CC(C)C)CC(C)C)C(Cl)(Cl)Cl (stereo not given) | inactive: -3.3% |
| Cc1ccc(OP(=O)(Nc2ccccn2)Oc2ccc(C)cc2)cc1 | inactive: 3.1% |
| COC(=O)c1cc2c(s1)N=C(c1ccccc1)N(C)P2(=O)N1CCOCC1 (stereo not given) | inactive: -0.1% |
| CCC(=O)N1C2C3N(C(=O)CC)C1C1N(C(=O)CC)C(C(N1C(=O)CC)N3C(=O)CC)N2C(=O)CC | inactive: 1.4% |
| CCNC(=S)/N=C(\N)N[N+](=O)[O-] | inactive: 0.1% |
| O=C(NC1CCS(=O)(=O)C1)NP(=S)(Oc1ccccc1)Oc1ccccc1 (stereo not given) | inactive: -0.3% |

| Compound | cellular ATP content (survival) |
| --- | --- |
| CCOC(=O)NC(Sc1ccccc1)C(Cl)(Cl)Cl (stereo not given) | inactive: -1.7% |
| c1ccc(-c2nn[nH]n2)c(-c2nn[nH]n2)c1 | inactive: -1.8% |
| CCN(N=Nc1nonc1N)c1nonc1N | inactive: 0.2% |
| CCOP(=O)(Nc1ccccc1)OCC | inactive: 3.3% |
| Cc1cc(SC(NC(=O)c2ccc(F)cc2)C(Cl)(Cl)Cl)ncn1 (stereo not given) | inactive: -0.8% |
| CC(C)CC(=O)NC(Sc1ccc(Cl)cc1)C(Cl)(Cl)Cl (stereo not given) | inactive: -0.1% |
| Cc1c2non([O-])c-2c(C)[n+](=O)[n+]1[O-] | inactive: -7.8% |
| O=C(NC(Sc1ccncn1)C(Cl)(Cl)Cl)c1ccccc1 (stereo not given) | inactive: 1.9% |
| Oc1ccccc1CNc1ccccn1 | inactive: -1.1% |
| COc1ccccc1OP(=O)(Nc1ccc(C)cn1)Oc1ccccc1OC | inactive: -0.2% |
| Clc1ccc(Cl)c(NC2=NCC(CBr)S2)c1 (stereo not given) | inactive: -0.3% |
| CN1CCCC(OC(=O)C(c2ccccc2)c2ccccc2)C1 (stereo not given) | inactive: -0.8% |
| NC(=O)c1cc([N+](=O)[O-])cc([N+](=O)[O-])c1N | inactive: -1.9% |
| Cc1ccc(N/C(=N/P(=O)(N2CCOCC2)N2CCOCC2)N2CCOCC2)cc1 | inactive: 0.5% |
| CN(C)C(=O)OCCc1n(C)cc[n+]1C | inactive: -2.6% |
| CC(C)=N/N=C(\N)N[N+](=O)[O-] | inactive: -1% |
| CC1CCN(C(=O)Oc2c(Cl)cc(Cl)c3cccnc23)CC1 | inactive: -0.8% |
| CCN(/C(=N/P(=O)(N1CCOCC1)N1CCOCC1)N1CCOCC1)c1ccc(OC)cc1 | inactive: -0.2% |
| O=[N+]([O-])c1cccc2n[nH]nc12 | inactive: -2.9% |
| CC(=O)N1C2C3N(C(C)=O)C1C1N(C(C)=O)C(C(N1C(C)=O)N3C(C)=O)N2C(C)=O | inactive: -0.8% |
| CCc1nc2c(n1)c1c(non1O)c1c2no[n+]1[O-] | inactive: 0% |
| O=[N+]([O-])c1cc([N+](=O)[O-])c(CCNc2ccccc2)c([N+](=O)[O-])c1 | inactive: -0.6% |
| Cc1ccc(NP(=O)(Oc2ccccc2)Oc2ccccc2)nc1 | inactive: -0.9% |
| COc1ccc(C2=NCC(CBr)S2)cc1 (stereo not given) | inactive: 1.7% |
| O=[N+]([O-])c1ncn(CCn2ncnc2[N+](=O)[O-])n1 | inactive: -0.8% |
